Reference: PubChem BioAssay AID1490 (National Center for Advancing Translational Sciences (NCATS), 2009)
Several values for one entry are separate records, joined by “and”; a condition that tells them apart may be missing. Equal entries are not always repeated. This is a selection; strong and weak results do not stand in their true shares. Inconclusive results are not listed. Activity calls are given as the source filed them. Calls come from the whole dose curve; as a rule, active = well fitted inhibition curve with a large enough effect; inconclusive = small, poorly fitted or top-dose-only effect, or another doubt; inactive = no such curve, though single readings can be large or run the other way.

Each compound was assayed against 4'-phosphopantetheinyl transferase ffp (Bacillus subtilis) (UniProt Q9F4F7) (assay: qHTS Assay for Inhibitors of Bacillus subtilis Sfp phosphopantetheinyl transferase (PPTase)). Conditions: Biochemical Sfp PPTase activity.
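Note: the enzyme is Sfp with the accession as filed and its product quenches rhodamine fluorescence; 0% = enzyme reaction without inhibitor and -100% = no enzyme wells.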

Row | SMILES | largest response in the series, negative = inhibition
1 | CC(C)(C)C(=O)NC(Sc1ccccc1)C(Cl)(Cl)Cl (configuration not stated) | inactive: 12.5%
2 | O=P1(Nc2nc3ccc(Cl)cc3s2)COc2ccccc2O1 (configuration not stated) | inactive: 4.81%
3 | CC(=O)Nc1ccc([As](=O)(O)O)c(O)c1 | inactive: 1.76%
4 | C[C@H]1OP(=O)(Oc2ccccc2)C[C@@H]2O[C@@H]21 (some centres not stated) | inactive: 6.68%
5 | C[C@@H]1C=CCP(=O)(Oc2ccccc2)O1 (some centres not stated) | inactive: 8.64%
6 | O=C(OCCN1CCN(CCOCc2ccccc2)CC1)C(O)(c1ccccc1)c1ccccc1 | inactive: 8.9%
7 | CC(=O)c1ccc(N2CC2c2ccncc2)cc1 (configuration not stated) | inactive: 8.42%
8 | Cc1ccc(NP(=O)(Oc2cccc(C)c2)Oc2cccc(C)c2)nc1 | inactive: 12.5%
9 | CCOC(=O)NC(Sc1ccccc1)C(Cl)(Cl)Cl (configuration not stated) | inactive: 20.1%
10 | c1ccc(-c2nn[nH]n2)c(-c2nn[nH]n2)c1 | inactive: 0.305%
11 | O=C(NC1CCS(=O)(=O)C1)NP(=S)(Oc1ccccc1)Oc1ccccc1 (configuration not stated) | inactive: 6.42%
12 | O=c1c2cc([N+](=O)[O-])ccc2[nH]c2c([N+](=O)[O-])cc([N+](=O)[O-])cc12 | inactive: 8.43%
13 | CN(C)C(=O)Oc1noc2ccccc12 | inactive: 7.57%
14 | Cc1ccccc1OP(=O)(Nc1ccccn1)Oc1ccccc1C | inactive: 4.7%
15 | CCN(CC)CCCOC(=O)C(O)(c1ccccc1)C1CCCCC1 (configuration not stated) | inactive: 18.1%
16 | CCC(=O)N1C2C3N(C(=O)CC)C1C1N(C(=O)CC)C(C(N1C(=O)CC)N3C(=O)CC)N2C(=O)CC | inactive: 12.9%
17 | O=C(OC1CN2CCC1CC2)c1ccccc1 (configuration not stated) | inactive: 6.76% and inactive: 4.47%
18 | CC(=O)NC(SC(=S)N(CC(C)C)CC(C)C)C(Cl)(Cl)Cl (configuration not stated) | inactive: 8.44%
19 | Cc1ccc(OP(=O)(Nc2ccccn2)Oc2ccc(C)cc2)cc1 | inactive: 4.67%
20 | COC(=O)c1cc2c(s1)N=C(c1ccccc1)N(C)P2(=O)N1CCOCC1 (configuration not stated) | inactive: 21.5%
21 | CN(C(=O)Cc1ccccc1)[C@H]1CC[C@@]2(CCCO2)C[C@@H]1N1CCCC1 | inactive: -4.78%
22 | C[C@H]1OP(=O)(Oc2ccccc2)[C@H](O)[C@H](O)[C@H]1N=[N+]=[N-] (some centres not stated) | inactive: 9.67%
23 | CN(C)CCOC(=O)C(O)(c1ccccc1)C1CCCCC1 (configuration not stated) | inactive: 15.3%
24 | O=P(Nc1nc2ccccc2s1)(c1ccccc1)c1ccccc1 | inactive: -3%

Row | SMILES | largest response in the series, negative = inhibition
25 | O=P(Nc1ccccn1)(c1ccc(Br)cc1)c1ccc(Br)cc1 | inactive: -11%
26 | CN(C)C1(CNC(=O)c2ccc(Cl)c(S(N)(=O)=O)c2)CCCCC1 | inactive: 11.3%
27 | O=C(OC1CN2CCC1CC2)c1cccc(Cl)c1 (configuration not stated) | inactive: 4.51%
28 | C(Cc1nn[nH]n1)Cc1nn[nH]n1 | inactive: -94.3%
29 | Nc1ccc([As](=O)(O)c2ccc([N+](=O)[O-])cc2)cc1 | inactive: 10.2%
30 | O=[As](O)(c1ccccc1)c1ccc(O)cc1 | inactive: 20.5%
31 | O=[N+]([O-])c1ccc(O)c(/C=N/Nc2ccc([N+](=O)[O-])cc2[N+](=O)[O-])c1 | inactive: -15.2%
32 | CC(=O)NC(SC(=S)N(C)C)C(Cl)(Cl)Cl (configuration not stated) | inactive: -3.44%
33 | O=[N+]([O-])c1ccc(OP2(=O)COCCO2)cc1 (configuration not stated) | inactive: 6.78%
34 | O=[N+]([O-])c1ncn(CCn2cnc([N+](=O)[O-])n2)n1 | inactive: 4.01%
35 | c1nnnn1CCn1cnnn1 | inactive: 11.1%
36 | CCC(C)(OOC(C)(C)C)OOC(C)(C)C | inactive: 1.37%
37 | CC(C)C(=O)NC(Sc1ccccc1)C(Cl)(Cl)Cl (configuration not stated) | inactive: 37%
38 | O=P(Nc1nccs1)(c1ccccc1)c1ccccc1 | inactive: 6.9%
39 | CCN(CCCl)Cc1ccccc1C | inactive: -5.23%
40 | O=[N+]([O-])c1cc([N+](=O)[O-])c(CCNc2ccccc2)c([N+](=O)[O-])c1 | inactive: -17%
41 | Cc1ccc(NP(=O)(Oc2ccccc2)Oc2ccccc2)nc1 | inactive: 4.77%
42 | O=C(OCCCN1CCCC1)C(O)(c1ccccc1)C1CCCCC1 (configuration not stated) | inactive: -8.2%
43 | O=[N+]([O-])c1cccc2n[nH]nc12 | inactive: -7.87%
44 | CC(=O)N1C2C3N(C(C)=O)C1C1N(C(C)=O)C(C(N1C(C)=O)N3C(C)=O)N2C(C)=O | inactive: 14.2%
45 | CCN(CC)CC(O)COC(=O)C(O)(c1ccccc1)C1CCCCC1 (configuration not stated) | inactive: 22%
46 | CC1CCN(C(=O)Oc2c(Cl)cc(Cl)c3cccnc23)CC1 | inactive: -10.1%
47 | CC(=O)C1=CCCC2CCC1N2 (configuration not stated) | inactive: -13% and inactive: 5.41%
48 | CN(C)C(=O)OCCc1n(C)cc[n+]1C | inactive: 9.63%

Row | SMILES | largest response in the series, negative = inhibition
49 | CC(C)=N/N=C(\N)N[N+](=O)[O-] | inactive: -3.45%
50 | CCN(/C(=N/P(=O)(N1CCOCC1)N1CCOCC1)N1CCOCC1)c1ccc(OC)cc1 | inactive: 27%
51 | Nc1ccc([As](=O)(O)c2ccc(N)cc2)cc1 | inactive: 4.33%
52 | O=C(Nc1cc([As](=O)(O)O)ccc1O)c1ccccc1 | inactive: -16.8%
53 | O=C(O)CNc1ccc([As](=O)(O)O)cc1 | inactive: 11.7%
54 | O=[N+]([O-])c1cccc(NC2=NCC(CBr)S2)c1 (configuration not stated) | inactive: -12.7%
55 | O=[N+]([O-])c1ncn(CCn2ncnc2[N+](=O)[O-])n1 | inactive: 7.47%
56 | Cc1ccc(NP(=O)(Oc2ccccc2F)Oc2ccccc2F)nc1 | inactive: 12.3%
57 | CCOP(=O)(Nc1ccccc1)OCC | inactive: 18.8% and inactive: 3.96%
58 | O=P(Nc1nc2ccc(Cl)cc2s1)(c1ccccc1)c1ccccc1 | inactive: 7.52%
59 | CC(=O)Nc1ccc([As](=O)(O)O)cc1 | inactive: 8.05%
60 | O=C(O)c1ccccc1[As](=O)(O)O | inactive: -5.84%
61 | CCN(N=Nc1nonc1N)c1nonc1N | inactive: 11.4%
62 | O=[N+]([O-])c1cc([N+](=O)[O-])c(CCN2CCOCC2)c([N+](=O)[O-])c1 | inactive: -18.5%
63 | CN1CCCC(OC(=O)C(c2ccccc2)c2ccccc2)C1 (configuration not stated) | inactive: -5.04%
64 | Clc1ccc(Cl)c(NC2=NCC(CBr)S2)c1 (configuration not stated) | inactive: -27.1%
65 | CN(C)CCOC(=O)C(O)(c1ccccc1)C1CCCC1 (configuration not stated) | inactive: -0.974%
66 | Cc1ccc(OP(=O)(Nc2nccs2)Oc2ccc(C)cc2)cc1 | inactive: 5.36%
67 | COc1ccccc1OP(=O)(Nc1ccc(C)cn1)Oc1ccccc1OC | inactive: 15.1%
68 | Cc1ccc(N/C(=N/P(=O)(N2CCOCC2)N2CCOCC2)N2CCOCC2)cc1 | inactive: 24.4%
69 | NC(=O)c1cc([N+](=O)[O-])cc([N+](=O)[O-])c1N | inactive: -0.0536%
70 | Oc1ccccc1CNc1ccccn1 | inactive: 4.2%
71 | Nc1cc(N)c2nonc2c1[N+](=O)[O-] | inactive: 8.38%
72 | CC(C)CC(=O)NC(Sc1ccc(Cl)cc1)C(Cl)(Cl)Cl (configuration not stated) | inactive: 16.3%
